Measurements taken from ChEMBL document CHEMBL5705890, “Antitumor activity of an allosteric inhibitor of centromere-associated protein-E” (Proc Natl Acad Sci U S A, 2010).

Chains of the proteins cited; added tags and fusions are not shown. Lines headed by an entry give the natural chain unless they say otherwise; changes in a name come on top.
UniProt Q6RT24: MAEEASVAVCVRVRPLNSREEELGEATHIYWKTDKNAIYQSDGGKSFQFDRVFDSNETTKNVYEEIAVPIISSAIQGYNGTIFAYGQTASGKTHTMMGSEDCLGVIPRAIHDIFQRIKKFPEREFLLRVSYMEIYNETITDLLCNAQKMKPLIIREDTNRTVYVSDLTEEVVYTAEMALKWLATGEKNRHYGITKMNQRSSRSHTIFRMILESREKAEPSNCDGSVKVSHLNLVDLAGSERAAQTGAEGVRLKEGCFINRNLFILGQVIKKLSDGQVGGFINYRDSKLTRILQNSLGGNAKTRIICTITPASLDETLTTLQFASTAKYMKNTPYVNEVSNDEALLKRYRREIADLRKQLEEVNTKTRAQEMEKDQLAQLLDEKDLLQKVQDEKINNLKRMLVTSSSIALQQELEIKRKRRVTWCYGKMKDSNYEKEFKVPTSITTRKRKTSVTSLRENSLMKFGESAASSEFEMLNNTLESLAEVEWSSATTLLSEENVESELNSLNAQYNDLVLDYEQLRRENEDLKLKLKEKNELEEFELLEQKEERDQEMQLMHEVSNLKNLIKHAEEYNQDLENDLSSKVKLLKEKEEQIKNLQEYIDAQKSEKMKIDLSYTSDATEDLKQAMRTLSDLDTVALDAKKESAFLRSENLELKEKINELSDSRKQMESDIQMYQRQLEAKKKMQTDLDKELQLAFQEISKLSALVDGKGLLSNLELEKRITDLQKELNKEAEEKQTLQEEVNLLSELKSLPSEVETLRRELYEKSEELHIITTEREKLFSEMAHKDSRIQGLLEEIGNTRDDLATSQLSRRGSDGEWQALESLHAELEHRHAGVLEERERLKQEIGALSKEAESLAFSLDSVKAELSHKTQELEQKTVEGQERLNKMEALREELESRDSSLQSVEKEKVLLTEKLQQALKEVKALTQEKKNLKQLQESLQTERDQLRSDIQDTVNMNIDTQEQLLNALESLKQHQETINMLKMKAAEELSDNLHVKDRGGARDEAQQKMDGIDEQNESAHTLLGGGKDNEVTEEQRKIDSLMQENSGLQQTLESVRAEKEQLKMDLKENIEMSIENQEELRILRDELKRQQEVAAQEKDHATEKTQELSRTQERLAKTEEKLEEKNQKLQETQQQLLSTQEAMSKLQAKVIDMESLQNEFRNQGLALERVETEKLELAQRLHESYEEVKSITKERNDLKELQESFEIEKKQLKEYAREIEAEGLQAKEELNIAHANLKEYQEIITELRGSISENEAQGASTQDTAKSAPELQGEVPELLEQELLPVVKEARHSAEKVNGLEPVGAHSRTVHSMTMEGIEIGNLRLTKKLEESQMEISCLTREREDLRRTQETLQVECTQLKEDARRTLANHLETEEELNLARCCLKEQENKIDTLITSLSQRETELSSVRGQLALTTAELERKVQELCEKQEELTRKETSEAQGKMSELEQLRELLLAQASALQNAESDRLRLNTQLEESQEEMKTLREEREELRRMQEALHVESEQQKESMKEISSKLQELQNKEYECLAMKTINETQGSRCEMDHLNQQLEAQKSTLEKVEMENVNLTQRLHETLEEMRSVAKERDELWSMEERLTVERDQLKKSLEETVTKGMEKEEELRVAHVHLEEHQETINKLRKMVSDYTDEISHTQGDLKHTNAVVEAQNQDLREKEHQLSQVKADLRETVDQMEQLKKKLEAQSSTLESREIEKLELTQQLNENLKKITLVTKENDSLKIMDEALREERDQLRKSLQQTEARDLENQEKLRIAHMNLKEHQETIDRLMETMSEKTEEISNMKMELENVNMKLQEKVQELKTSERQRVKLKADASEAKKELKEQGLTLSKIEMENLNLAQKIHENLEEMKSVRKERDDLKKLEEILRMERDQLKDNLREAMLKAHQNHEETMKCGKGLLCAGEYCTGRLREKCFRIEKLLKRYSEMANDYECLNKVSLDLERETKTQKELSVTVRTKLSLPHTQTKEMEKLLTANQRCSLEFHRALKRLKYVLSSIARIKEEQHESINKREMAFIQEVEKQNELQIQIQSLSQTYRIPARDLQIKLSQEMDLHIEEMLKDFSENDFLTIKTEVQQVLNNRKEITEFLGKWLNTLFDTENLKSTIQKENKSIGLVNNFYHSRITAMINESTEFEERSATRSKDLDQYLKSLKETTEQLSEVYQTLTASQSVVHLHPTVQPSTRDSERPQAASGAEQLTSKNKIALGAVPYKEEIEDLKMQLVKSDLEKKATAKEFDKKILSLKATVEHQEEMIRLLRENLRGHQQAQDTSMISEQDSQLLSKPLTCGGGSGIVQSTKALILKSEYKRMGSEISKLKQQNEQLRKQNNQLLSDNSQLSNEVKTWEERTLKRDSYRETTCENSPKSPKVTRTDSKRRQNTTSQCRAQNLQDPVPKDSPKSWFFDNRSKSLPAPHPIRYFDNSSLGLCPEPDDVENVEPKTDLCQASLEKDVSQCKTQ

Target: Centromere-associated protein E (Mus musculus) (UniProt Q6RT24)
Experiment: Binding affinity to wild-type mouse CENP-E assessed as ATPase activity

Activity: 0.31 s⁻¹
Structure (SMILES): CC(C)Oc1ccc(C(=O)N[C@H](CNC(=O)CN(C)C)Cc2ccc(-c3cn4cccc([C@H](C)O)c4n3)cc2)cc1Cl
